# Ab-14 light chain CDR variants: yeast mating affinities

Source: Engelhart et al. 2022 (doi:10.1038/s41597-022-01779-4), MIT Lincoln Laboratory and A-Alpha Bio; data file from the FLAb repository.

Target: peptide PDVDLGDISGINAS, taken from heptad repeat 2 (HR2) of SARS-CoV-2 spike.

Parent: Ab-14, a human scFv built as VH, three GGGGS repeats, VL. Only the CDRs of the light chain vary.
VH: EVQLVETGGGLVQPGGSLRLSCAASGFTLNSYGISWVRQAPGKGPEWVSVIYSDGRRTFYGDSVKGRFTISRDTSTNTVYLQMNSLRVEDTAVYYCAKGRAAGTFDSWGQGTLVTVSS
VL: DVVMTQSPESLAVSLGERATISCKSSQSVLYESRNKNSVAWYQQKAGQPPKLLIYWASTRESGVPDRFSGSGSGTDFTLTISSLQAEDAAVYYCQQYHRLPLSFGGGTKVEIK

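The parent was found by panning a naive human phage display library on the peptide. Variants in AAYL50 differ from the parent at up to three CDR positions; double and triple changes were sampled at random. In AlphaSeq, yeast of one mating type display the scFv and yeast of the other type display the target. After mating in shaken culture at 30 °C for 16 h, diploids were selected and their barcode pairs sequenced. Read counts were normalised to the haploid input and turned into Kd by a linear fit to BCL2-family pairs of known affinity, for each replicate. Mating was done three times.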

Substitutions are numbered in sequence along the VL above, starting at 1 (not Kabat). This list gathers variants with a substitution at E61 (VL, numbered from residue 1). Values are log10 of the apparent Kd in nM; lower means stronger binding. Averages over replicates are reported, and they cover detected replicates only. A pair that was not seen in any replicate is written "nd"; this usually means weak binding, but a binder can also be missed.

For S28P S33W E61C, the assay gave 1.29 (3 of 3 replicates; controls 6 of 9). With S28K R34V E61H the result was 1.01 (3 of 3 replicates; controls 4 of 9). With A40Q R60W E61T the result was nd (0 of 3 replicates; controls 0 of 9). The variant S33I V39R E61G showed nd (0 of 3 replicates; controls 3 of 9). The variant K24M K36D E61V showed 0.57 (3 of 3 replicates; controls 0 of 9). For S28L T59V E61D, the assay gave 4.84 (3 of 3 replicates; controls 2 of 9). For Y31R W56E E61W, the assay gave 0.55 (3 of 3 replicates; controls 6 of 9). With S26Q E61Q S103Y the result was 1.41 (3 of 3 replicates; controls 0 of 9).

With L30T S38C E61A the result was 5.26 (1 of 3 replicates; controls 1 of 9). With T59Q E61A the result was 1.07 (3 of 3 replicates; controls 0 of 9). For K24M R34E E61G, the assay gave 0.92 (3 of 3 replicates; controls 3 of 9). The variant T59I E61P Q95K showed nd (0 of 3 replicates; controls 0 of 9). With K24C E61H H98W the result was 3.04 (3 of 3 replicates; controls 0 of 9). The variant S28Q S58F E61M showed 2.70 (3 of 3 replicates; controls 0 of 9). With E61M Y97Q the result was 3.05 (3 of 3 replicates; controls 1 of 9). The variant K36R R60K E61H showed 2.64 (3 of 3 replicates; controls 1 of 9).

The variant E61T L102G showed 1.74 (3 of 3 replicates; controls 4 of 9). The variant V29M L30T E61D gave 0.94 (3 of 3 replicates; controls 3 of 9). With T59G E61P L100P the result was 2.93 (1 of 3 replicates; controls 2 of 9). The variant A40D E61T S103R gave nd (0 of 3 replicates; controls 0 of 9). For S26C E61D S62M, the assay gave nd (0 of 3 replicates; controls 0 of 9). The variant N35Y E61T L100T showed nd (0 of 3 replicates; controls 0 of 9). The variant E61L R99N L100R showed nd (0 of 3 replicates; controls 0 of 9). The variant K24F N37G E61P gave 4.48 (2 of 3 replicates; controls 0 of 9).

For A40S S58Y E61I, the assay gave 3.75 (1 of 3 replicates; controls 3 of 9). For A57C E61W R99V, the assay gave nd (0 of 3 replicates; controls 0 of 9). The variant R34Y E61W gave 1.27 (3 of 3 replicates; controls 3 of 9). For A40L E61D S62A, the assay gave 4.45 (1 of 3 replicates; controls 2 of 9). The variant N37Y E61I Y97R showed nd (0 of 3 replicates; controls 2 of 9). With S28E K36T E61F the result was 0.78 (3 of 3 replicates; controls 3 of 9).

Extract of 4 entries:

Variant N37Y E61I Y97R showed nd (0 of 3 replicates; controls 2 of 9).
Variant A40Q R60W E61T showed nd (0 of 3 replicates; controls 0 of 9).
Variant T59I E61P Q95K showed nd (0 of 3 replicates; controls 0 of 9).
Variant K24M R34E E61G showed 0.92 (3 of 3 replicates; controls 3 of 9).

Nonspecific signal, from three strains lacking the peptide, appeared in 18% of pairings of library AAYL50, centred on 4.19 (5% of these signals below 2.99); values are not corrected for it. The control count says in how many pairings with the empty strains this scFv gave a signal. In this assay the parent's reference entry averaged 0.65; its copy inside this library read 1.68.